Assay results: patent EP0259014A2, “5-Deoxy-5-fluorokanamycin B derivatives and processes for the production thereof” (ZAIDAN HOJIN BISEIBUTSU KAGAKU KENKYU KAI, priority 1986, dated 1988)

Test: in vivo
Settings: mouse, iv

SMILES: NC[C@@H]1CC[C@@H](N)[C@@H](O[C@H]2[C@H](O)[C@@H](O[C@H]3O[C@H](CO)[C@@H](O)[C@H](N)[C@H]3O)[C@H](N)C[C@@H]2N)O1 [DKB, 3',4'-dideoxykanamycin B, reference compound]
- LD50: 80 mg/kg
